This passage reports allergic symptoms and dry eye syndrome results from patent US11117869B2, “Compounds, compositions and methods for treatment of myopia” (Aerie Pharmaceuticals, Inc., priority 2019, dated 2021).

A short description of the test: Topical eye drop composition (Table 3): allergic symptoms, dry eye, hyperemia, irritation.

With “8-methyl-8-azabicyclo[3.2.1]octan-3-yl 2-(4-fluorophenyl)-3-hydroxypropanoate toluensulfonate”, under “drop thrice per day”, the allergic symptoms entry was “substantially decreases” and the dry eye syndrome result is listed as “relieves”.
As to `CN1C2CCC1CC(NC(=O)[C@H](CN)c1ccc(CO)cc1)C2` (stereo partly drawn) [Compound E20S, (S)-3-amino-2-(4-(hydroxymethyl)phenyl)-N-((1R,3-endo,5S)-8-methyl-8-azabicyclo[3.2.]octan-3-yl)propanamide ditosylate], the dry eye syndrome result (in vivo) was “relieves”.
